The values that follow are results of earlier work, collected in patent EP4778540A1, “ANTIBODY-DRUG CONJUGATE CONTAINING HETEROCYCLIC COMPOUND HAVING ACTIVITY OF INDUCING DECOMPOSITION OF G12D MUTANT KRAS PROTEIN” (Astellas Pharma Inc., priority 2023, dated 2025).

By UniProt entry, the sequences of proteins in these tests, tags left out. Residues count along the entry.
UniProt P01116, 1-188 isoform 2 G12D: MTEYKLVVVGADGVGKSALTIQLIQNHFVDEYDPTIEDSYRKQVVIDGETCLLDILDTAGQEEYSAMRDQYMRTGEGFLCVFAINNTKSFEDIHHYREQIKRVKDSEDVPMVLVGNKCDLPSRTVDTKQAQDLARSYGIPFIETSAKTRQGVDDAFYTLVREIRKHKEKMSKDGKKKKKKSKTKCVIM

The target in the series is mutant RAS G12D protein (Homo sapiens, UniProt P01116, G12D). The settings on record: human G12D mutant KRAS-positive pancreatic cancer line AsPC-1; DC50 of D10 calculated from a molecular weight in terms of 4 hydrochloride; cited from earlier work.

As for `CCn1nccc1-c1ccc([C@H](CO)NC(=O)[C@@H]2C[C@@H](O)CN2C(=O)[C@H](C(C)C)n2cc(-c3ccc(COc4c(-c5c(C)c(F)cc6[nH]ncc56)c(C5CC5)cc5c(N(C)[C@H]6CCNC6)nc(OC[C@H](C)OC)nc45)cc3)nn2)cc1`, the DC50 is 10 nM.
